# Apparent affinities of Ab-14 variants for a coronavirus HR2 peptide

Target peptide (SARS-CoV-2 spike, HR2 region): PDVDLGDISGINAS

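This is the validation round: designs drawn from the data on random variants, tested in the same kind of assay. Their group label is 14L_GP_Gen (GP: Gaussian process model; Gen: genetic algorithm; a sequence that several methods proposed may carry one label only). AlphaSeq pools MATa yeast showing the antibodies with MATalpha yeast showing the peptide. The frequency of each diploid, read from paired DNA barcodes, reflects how well the two displayed proteins bind. The ratio of observed to expected reads was calibrated, replicate by replicate, on BCL2-family standards whose Kd was known from biolayer interferometry. The assay was run in six technical replicates.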

Each scFv is VH, three GGGGS repeats, VL, as in the parent Ab-14, and differs from it in the CDRs of the light chain only.
VH: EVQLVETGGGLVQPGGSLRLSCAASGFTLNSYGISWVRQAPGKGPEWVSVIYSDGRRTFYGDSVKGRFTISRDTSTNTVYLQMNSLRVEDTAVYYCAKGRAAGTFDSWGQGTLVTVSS
VL: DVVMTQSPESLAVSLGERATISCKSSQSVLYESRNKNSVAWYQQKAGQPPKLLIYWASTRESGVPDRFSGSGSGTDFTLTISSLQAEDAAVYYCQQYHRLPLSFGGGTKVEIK

Changes read parent residue, position, new residue, counted from the first residue of the VL shown. The read-out is the apparent dissociation constant on a log10 scale (nM): the lower, the stronger. Averages over replicates are reported, and they cover detected replicates only. An entry "nd" has no value in the source: the pair was not observed among the diploids in that replicate. This suggests poor binding but is not conclusive. Values of this round are not directly comparable with the first-round values of the same sequences.

| # | changes | log10 Kd, replicates | mean log10 Kd (nM) | control signals |
|---|---|---|---|---|
| 1 | S25L/W56G/Q96A | 0.20 / -0.01 / 0.01 / -0.15 / 0.02 / 0.04 | 0.02 | 0 of 18 |
| 2 | L30M/W56E | nd / nd / nd / nd / nd / nd | nd | 0 of 18 |
| 3 | S25V/V29E/W56H/T59Q | 0.15 / 0.06 / -0.26 / -0.09 / 0.07 / 0.20 | 0.02 | 0 of 18 |
| 4 | S25L/E32Q/S38N/W56D | 0.53 / 0.91 / 0.18 / 1.35 / 0.30 / 0.63 | 0.65 | 1 of 18 (1.36) |
| 5 | S25I/V29M/W56N/T59Q | -0.20 / 0.19 / -0.05 / -0.34 / 0.11 / -0.07 | -0.06 | 1 of 18 (2.52) |
| 6 | S25V/S26Y/V29W/W56N | 0.40 / 0.35 / 0.18 / 0.14 / 0.64 / 0.58 | 0.38 | 1 of 18 (2.63) |
| 7 | S25L/V29E/W56E/E61M | 0.07 / -0.08 / -0.09 / -0.18 / -0.16 / -0.04 | -0.08 | 2 of 18 (3.19) |
| 8 | S25V/W56D/E61S | -0.01 / -0.14 / -0.23 / -0.47 / -0.26 / -0.30 | -0.23 | 0 of 18 |
| 9 | S25L/Q27S/W56E | 0.42 / 0.34 / 0.25 / 0.31 / 0.13 / 0.20 | 0.28 | 0 of 18 |
| 10 | S25M/V29E/W56N/A57G | 0.06 / -0.32 / -0.55 / -0.71 / -0.35 / -0.45 | -0.39 | 0 of 18 |
| 11 | S26P/W56E | 0.05 / 0.27 / 0.17 / 0.27 / 0.35 / 0.37 | 0.25 | 2 of 18 (2.67) |
| 12 | S25L/S26Q/W56N/S62V | -0.49 / -0.52 / -0.39 / -0.61 / -0.46 / -0.45 | -0.49 | 0 of 18 |
| 13 | S25V/V29E/W56N/Q96D | 0.01 / -0.11 / -0.20 / -0.17 / -0.16 / -0.06 | -0.11 | 3 of 18 (2.50) |
| 14 | S25M/S26Q/W56N | -0.36 / -0.31 / -0.24 / -0.33 / -0.31 / -0.02 | -0.26 | 1 of 18 (2.66) |
| 15 | S25V/V29M/S38N/W56N | -0.17 / -0.27 / -0.37 / -0.29 / -0.36 / -0.24 | -0.28 | 1 of 18 (3.06) |
| 16 | S25L/W56E/S62E | -0.24 / -0.37 / -0.32 / -0.59 / -0.29 / -0.01 | -0.30 | 1 of 18 (1.45) |
| 17 | S25L/S33D/S38N/W56H | -0.44 / -0.41 / -0.56 / -0.53 / -0.37 / -0.39 | -0.45 | 3 of 18 (3.24) |
| 18 | S25L/S26Q/V29A/W56N/T59Q | 0.11 / 0.30 / -0.13 / -0.19 / -0.24 / 0.11 | -0.01 | 0 of 18 |
| 19 | S25L/S26P/V29H/S38A/W56N | 0.05 / -0.14 / -0.09 / -0.26 / -0.23 / -0.09 | -0.13 | 0 of 18 |
| 20 | S25I/L30G/W56E | 0.08 / -0.06 / -0.14 / -0.31 / -0.26 / -0.03 | -0.12 | 1 of 18 (2.61) |
| 21 | S25L/S26Y/V29D/W56E | -0.25 / -0.35 / -0.42 / -0.42 / -0.39 / -0.30 | -0.36 | 2 of 18 (2.36) |
| 22 | S25L/V29S/N35M/W56N | 0.57 / 0.55 / 0.30 / 0.28 / 0.45 / 0.37 | 0.42 | 1 of 18 (2.84) |
| 23 | S25L/S26E/Q27W/V29E/W56N | 0.54 / 0.78 / 0.72 / 0.45 / 0.41 / 0.61 | 0.58 | 1 of 18 (2.28) |
| 24 | S25L/W56N/T59Y/E61M | 0.36 / 0.22 / 0.08 / 0.16 / 0.12 / 0.14 | 0.18 | 1 of 18 (2.79) |
| 25 | S25L/S33E/S38N/W56N/E61M | -0.31 / -0.62 / -0.60 / -0.68 / -0.63 / -0.55 | -0.57 | 2 of 18 (2.86) |
| 26 | S25M/V29W/W56N/T59Q/S62Q | -0.01 / 0.09 / -0.17 / 0.08 / -0.05 / 0.09 | 0.00 | 0 of 18 |
| 27 | S25L/V29H/W56N/S62V | 0.11 / 0.17 / 0.05 / -0.03 / 0.13 / 0.15 | 0.10 | 0 of 18 |
| 28 | S25L/V29Q/N35M/S38A/W56N | 0.10 / -0.17 / -0.25 / -0.21 / -0.16 / -0.04 | -0.12 | 1 of 18 (3.11) |
| 29 | S25L/S33E/W56H | -0.12 / -0.16 / -0.50 / -0.63 / -0.54 / -0.31 | -0.38 | 0 of 18 |
| 30 | S25L/Q27M/V29W/W56N/T59Q | 0.43 / 0.25 / 0.25 / 0.02 / 0.26 / 0.10 | 0.22 | 1 of 18 (3.23) |

Repeated from above, the 2 best binders with a signal in all replicates:

{"changes": "S25L/S33E/S38N/W56N/E61M", "log10 Kd, replicates": "-0.31 / -0.62 / -0.60 / -0.68 / -0.63 / -0.55", "mean log10 Kd (nM)": "-0.57", "control signals": "2 of 18 (2.86)"}
{"changes": "S25L/S26Q/W56N/S62V", "log10 Kd, replicates": "-0.49 / -0.52 / -0.39 / -0.61 / -0.46 / -0.45", "mean log10 Kd (nM)": "-0.49", "control signals": "0 of 18"}

As a blank, each scFv also met three strains without target: over all light chain designs, 4% of these pairings were detected, typically at 2.64 and seldom below 1.59. For each scFv, signals with the empty controls are counted beside the result, with their mean in brackets. In the paper, a design with two or fewer of six values counts as a poor binder.

Values reported by Li et al. 2023, doi:10.1038/s41467-023-39022-2 (FLAb copy).